pKd, pKi: −log10 of the molar value.
Legend:
[1] = biological target: FK-506 binding protein (Homo sapiens, UniProt P62942); assay: Competitive binding assay with [3H]dihydro-FK-506; conditions: binding to FKBP; apparent Kd, competition with [3H]dihydro-FK-506
[2] = biological target: FKBP (Homo sapiens, UniProt P62942); assay: Inhibition of FKBP PPIase (rotamase) activity, chymotrypsin-coupled assay; type: biochemical; conditions: apparent Ki
Text: The inhibition of the PPIase (rotamase) enzyme activity of the FKBP (apparent "Ki" values) can also be measured according to the methods described by either Harding, M.W. et al., Nature 341:758-760 (1989) or Siekierka, J.J. et al., Nature 341:755-757 (1989). The cis-trans isomerization of the […] peptide bond in a model substrate, N-succinyl-Ala-Ala-Pro-Phe-p-nitroanilide, is monitored spectrophotometrically in a coupled assay with chymotrypsin, which releases 4-nitroanilide from the trans form of the substrate. Fischer, G. et al., Nature 337:476-478 (1989). The inhibitory effect of the addition of different concentrations of inhibitor on the extent of the reaction is determined, and analysis of the change in first order rate constant as a function of inhibitor concentration yields an estimate of the apparent Ki value.

Chains of the proteins cited; added tags and fusions are not shown.
UniProt P62942, whole entry: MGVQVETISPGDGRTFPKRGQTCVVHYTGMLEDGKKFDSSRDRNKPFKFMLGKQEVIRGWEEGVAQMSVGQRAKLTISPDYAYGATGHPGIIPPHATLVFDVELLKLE

pKd [1]	pKi [2]	SMILES
7.54	–	COc1cc(C(=O)C(=O)N2CCCC[C@H]2C(=O)OC(CCCc2ccccc2)CCc2cccnc2)cc(OC)c1OC (mixture of isomers) [Compound 7, (R and S)-6-Phenyl-1-(3-pyridyl)-3-hexyl (S)-N-(3,4,5-trimethoxyphenylglyoxyl)pipecolate]
8.40	9.00	COc1cc(C(=O)C(=O)N2CCCC[C@H]2C(=O)OC(CCCc2ccccc2)CCCc2cccnc2)cc(OC)c1OC (mixture of isomers) [Compound 9, (R and S)-1-Phenyl-7-(3-pyridyl)-4-heptyl (S)-N-(3,4,5-trimethoxyphenylglyoxyl)pipecolate]
